In patent US7445802B2, “Site-specific in situ generation of allicin using a targeted alliinase delivery system for the treatment of cancers, tumors, infectious diseases and other allicin-sensitive diseases” (Yeda Research and Development Co. Ltd, priority 2000, dated 2008):

What was measured:
Assay type in all cases: cell-based
Settings in all cases: concentrations of up to 200 μM
CB-2 cells = test: Trypan blue viability of CB-2 cells
Method: (§1) The following cell lines were used: N87 human gastric tumor cell line expressing the ErbB-2 receptors (described by Park et al, 1990); CB-2 cell line, generated by transfection of Chinese hamster ovary (CHO) cells with mammalian expression vectors that direct expression of ErbB-2 (Tzahar et al, 1996); and 32D cell line known to be devoid of the ErbB-2 receptors (described by Pinkas-Kramarski, 1996).
(§2) Viability of living cells was done after staining with Trypan Blue (0.025%) for 10 minutes.
(§3) In parallel, CB-2 cells treated with alliin or allicin were stained with Trypan blue to monitor cell viability.
(§4) Cell cultures of N87 (20,000 cells/well) were grown in 96-well plates and 32D cells were grown in suspension in 12-well plates (200,000 cells/ml). Cells were treated with: none, mAb ErbB-2 or mAb-ErbB-2-alliinase conjugate (total protein 2 μg/20,000 cells) for 1 hour at 37° C.

N87 cancer cells = test: Trypan blue viability of N87 cells
Method: as §1, §2, §3, §4

[1] = system: normal human foreskin fibroblasts; test: Trypan blue viability of normal human foreskin fibroblasts
Method: as §2, §3

Measured: toxic effects

S-allyl-L-cysteine sulfoxide [alliin]
no toxic effects: CB-2 cells | N87 cancer cells | [1]
